Assay results: patent US7671165B2, “Method of forming polycarbonate” (Sabic Innovative Plastics IP B.V., priority 2008, dated 2010)

Assay: Solubility of reaction components and additives in MS
Details: for Stable at T (room) for:: solution in MS

| Stable at T (room) for: (0.8 wt %) | Stable at T (room) for: (7.8 wt %, result in words) | Structure (SMILES) | Solubility in MS, T (room) (4.1 wt %, 0.5 g in 10 ml MS) | Solubility in MS, T (room) (4.8 wt %, 0.6 g in 10 ml MS) | Solubility in MS, T (room) (5.6 wt %, 0.7 g in 10 ml MS) | Solubility in MS, T (room) (6.3 wt %, 0.8 g in 10 ml MS) | Solubility in MS, T (room) (20.2 wt %, 3.0 g in 10 ml MS) | Stable at T (room) for: (4.1 wt %) | Stable at T (room) for: (4.8 wt %) | Stable at T (room) for: (5.6 wt %) | Stable at T (room) for: (6.3 wt %) | Stable at T (room) for: (20.2 wt %) |
| --- | --- | --- | --- | --- | --- | --- | --- | --- | --- | --- | --- | --- |
|  |  | CC(C)(C)c1cc(CCC(=O)OCC(COC(=O)CCc2cc(C(C)(C)C)c(O)c(C(C)(C)C)c2)(COC(=O)CCc2cc(C(C)(C)C)c(O)c(C(C)(C)C)c2)COC(=O)CCc2cc(C(C)(C)C)c(O)c(C(C)(C)C)c2)cc(C(C)(C)C)c1O [Irgafos 1010, [3 (3,5 di tert.butyl 4 hydroxyphenyl) propionate]] | Dissolved | Dissolved | Dissolved | Dissolved | Dissolved | 6 h | 6 h | 6 h | 6 h | 6 h |
| >48 h | Crystalized | Cc1cc(O)ccc1O [Methyl hydroquinone] |  |  |  |  |  |  |  |  |  |  |
